The term IC50 denotes the concentration that inhibits the measured activity by half. A high value points to a need for much substance.

The target of the experiment is T1, urokinase enzyme Abbokinase (Homo sapiens, UniProt P00749).
T1 construct: purchased Abbott Laboratories, Abbott Park, Ill
In words: Determination of urokinase inhibition (Abbokinase, chromogenic substrate S-2444). The format is biochemical.
As for `COc1ccc2ccc(C(=N)N)cc2c1Nc1ccccc1` [Example 102, 7-methoxy-8-(phenylamino)-2-naphthalenecarboximidamide], the midpoint of inhibition, the IC50, lay at 340 nM. This counts as sub-micromolar.

On to `COc1ccc2ccc(C(=N)N)cc2c1-c1ccco1` [Example 25, 7-Methoxy-8-(2-furanyl)-2-naphthalenecarboximidamide], for which the IC50 was 2100 nM.

The molecule `N=C(N)c1ccc2cc(-c3ccc(N)cc3)ccc2c1` [Example 93, 6-(4-aminophenyl)-2-naphthalenecarboximidamide] showed an IC50 of 2360 nM.

`[H]/N=C(/N)c1ccc2cc(C=Cc3ccc(C(O)CO)cc3)ccc2c1` (centres unmarked) [Example 104, (E)-6-[2-[4-(1,2-dihydroxyethyl)phenyl]ethenyl]-2-naphthalenecarboximidamide] registered an IC50 of 1200 nM.

`N=C(N)c1ccc2cc(C#Cc3ccc(CCN)cc3)ccc2c1` [Example 63, 6-[[4-(2-Aminoethyl)phenyl]ethynyl]-2-naphthalenecarboximidamide]: the IC50 stood at 370 nM. Compared with the last molecule, the IC50 is about 3.2-fold lower.

The values are drawn from patent US20010049374A1 (priority 1997, published 2001).
